Chains of the proteins cited; added tags and fusions are not shown.
UniProt Q9UM07, whole entry: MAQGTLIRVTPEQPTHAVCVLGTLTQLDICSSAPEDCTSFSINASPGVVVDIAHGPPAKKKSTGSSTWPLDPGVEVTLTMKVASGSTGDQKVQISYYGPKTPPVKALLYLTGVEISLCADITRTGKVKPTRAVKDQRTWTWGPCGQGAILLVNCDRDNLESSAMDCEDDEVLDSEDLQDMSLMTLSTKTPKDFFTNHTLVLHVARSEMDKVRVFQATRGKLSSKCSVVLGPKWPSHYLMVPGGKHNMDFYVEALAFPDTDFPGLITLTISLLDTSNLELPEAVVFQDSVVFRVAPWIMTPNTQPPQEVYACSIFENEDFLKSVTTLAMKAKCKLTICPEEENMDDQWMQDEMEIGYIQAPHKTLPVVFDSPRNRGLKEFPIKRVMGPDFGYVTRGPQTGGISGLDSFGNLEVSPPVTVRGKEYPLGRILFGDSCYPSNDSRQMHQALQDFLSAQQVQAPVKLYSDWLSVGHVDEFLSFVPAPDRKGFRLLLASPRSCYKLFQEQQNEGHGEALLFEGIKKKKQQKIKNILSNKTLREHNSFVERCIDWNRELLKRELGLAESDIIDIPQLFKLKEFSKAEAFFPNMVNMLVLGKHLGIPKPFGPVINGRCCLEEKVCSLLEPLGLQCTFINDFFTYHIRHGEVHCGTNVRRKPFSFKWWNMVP

According to ChEMBL document CHEMBL3112427, “Insights into the mechanism of streptonigrin-induced protein arginine deiminase inactivation” (Bioorg Med Chem, 2014):

Target: Protein-arginine deiminase type-4 (Homo sapiens, UniProt Q9UM07)
Test: Inhibition of recombinant wild-type PAD4 (unknown origin) using N-alpha-Benzoyl-L-arginine ethyl ester as substrate preincubated for 15 mins followed by substrate addition measured after 15 mins by COLDER assay

With `NC1=CC(=O)c2ccc(-c3cccc(C(=O)O)n3)nc2C1=O` the IC50 was 240 nM.
